The values that follow come from patent publication US20220265579A1, “COMPOSITION FOR PREVENTING OR TREATING CARDIO-CEREBROVASCULAR DISEASE COMPRISING AUTOPHAGY ACTIVATOR AS ACTIVE INGREDIENT” (VASTHERA CO. LTD., priority 2019, published 2022).

By UniProt entry, the sequences of proteins in these tests, tags left out.
UniProt P21796, whole entry, species assumed: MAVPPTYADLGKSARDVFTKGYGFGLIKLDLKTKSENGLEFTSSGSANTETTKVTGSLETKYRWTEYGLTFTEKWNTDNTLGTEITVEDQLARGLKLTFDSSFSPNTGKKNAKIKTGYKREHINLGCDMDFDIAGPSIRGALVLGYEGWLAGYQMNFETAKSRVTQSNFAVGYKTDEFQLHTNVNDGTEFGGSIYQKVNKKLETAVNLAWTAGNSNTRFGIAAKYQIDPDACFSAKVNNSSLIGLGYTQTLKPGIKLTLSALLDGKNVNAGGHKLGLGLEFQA

Test [1] has as its system smooth muscle cells (SMC). The conditions noted are these: 0 μM to 20 μM, 72 hours, MTT, FIG. 4A.
Test [2] relates to AMPK. Put plainly: Immunoblotting of AMPK phosphorylation (p-AMPK/AMPK). Format: cell-based. Particulars: compared to rapamycin, FIG. 2A/2B.
Test [3] deals with VDAC1 (Homo sapiens, UniProt P21796). The conditions noted are these: DARTS, 20 minutes or more, FIG. 3B.
Test [4] has as its system MEFs (mouse embryonic fibroblasts). Particulars: FIG. 3H.
The subject of test [5] is autophagy. The conditions noted are these: nanomolar concentration level.
In test [6] the test system is autophagic vacuoles. Put plainly: MDC fluorescence staining of autophagic vacuoles. Format: cell-based. The conditions noted are these: FIG. 1C.

The structures appear in SMILES notation. Entries after “also recorded” stand apart in the source; their conditions may differ.

For `CN[C@H]1CC[C@@H](c2ccc(Cl)c(Cl)c2)c2ccccc21` [sertraline], the “proliferation of smooth muscle cells” value in test [1] is “the proliferation of the smooth muscle cells is more greatly inhibited”. Further, the “p-AMPK/AMPK ratio / AMPK phosphorylation” value in test [2] was “relatively high p-AMPK/AMPK; also recorded: inducing AMPK activity”. The “stability of VDAC1 to pronase at nanomolecule concentration” value in test [3] was “but not VDACI”. The “cell proliferation of wild-type MEFs” value in test [4] was “continuously inhibited”. In addition, the “cell proliferation maintained in MEFs without VDAC1” value in test [4] (about 10 μM, 72nd hour) is given as at least 50%. In test [5], the “autophagy induction at nanomolar concentration” value was “does not induce autophagy”. Moreover, in test [6], the “quantity of LC3 expressed (MDC staining) relative to indatraline” value is given as “about 1.5 times”.
